Values of other authors as cited in paper PMC3720659, “Integrated Analysis of Drug-Induced Gene Expression Profiles Predicts Novel hERG Inhibitors” (PLoS ONE, 2013).

Experiments:
hERG current = conditions: cited from earlier work
[1] = drug on LQT Drug List; the Cell Line (HL60, MCF7, PC3) is the cell line of the expression profile; cited from earlier work

Row | Structure (SMILES) | Annotation (hERG Active / Inactive) (hERG current) | Annotation (LQT Drug) [1]
1 | COc1cc(NC(C)CCCN)c2ncccc2c1 (centres unmarked) [primaquine] | Inactive | 
2 | CC(N)C(O)c1ccccc1 (centres unmarked) [phenylpropanolamine] |  | LQT Drug
